# Reference: US12527774B2, “Estrogen-related receptor alpha modulators” (LEAD PHARMA HOLDING B.V., priority 2019, dated 2026)
# Tested on: B16F10 melanoma
# Test: B16F10 Melanoma Syngeneic Mouse Model
# Conditions: 30 mpk p.o., q.d., C57BL/6 mice
# Method: B16F10 Melanoma Syngeneic Mouse Model
# Examples inhibitors 100, 191, 192, 194 and 196 were tested for their ability to inhibit tumor growth in a B16F10 melanoma syngeneic mouse model.
# Cell line and tumor model: B16F10 melanoma cell line derived allograft model in C57BL/6 mice.
# Mouse B16F10 melanoma cells were sourced from American Type Culture Collection (ATCC), USA. Cells were grown in DMEM (Invitrogen, Catalogue No. 31600-034) supplemented with 10% FBS (Invitrogen, Catalogue No. 10438-026), and 1% penicillin streptomycin (Thermo Fisher Scientific, Catalogue No. 15140-122). […]
# B16F10 tumor grafts were measured after 5 days of cell inoculation once they became palpable. […]
# Tumor dimensions—length (I) and breadth (b)—were measured by caliper on the day of animal randomization based on tumor volume (Day 1) and thrice weekly thereafter until study termination. Tumor volumes were calculated using the formula b^2*I*0.52 where l=length, b=breadth (Dusan Djokovic et al., BMC Cancer, 2010, 10:641). Tumor growth inhibition was calculated after normalizing the tumor volume on a given day to that on Day 1. […]
smiles,measurement,setting,value
COc1cc(C2CC(=O)Nc3n[nH]cc32)ccc1COc1ccc(C(F)(F)F)cc1C(F)(F)F (racemic),Tumor Volume (mm^3) Day 13,,814 ± 117 mm^3
same,Tumor Growth Inhibition (%),Day 13,57%
